The source of these data is PMC2970562, “High-Affinity Inhibitors of Human NAD^+-Dependent 15-Hydroxyprostaglandin Dehydrogenase: Mechanisms of Inhibition and Structure-Activity Relationships” (PLoS ONE, 2010).

Each structure is given as a SMILES string. “And” between values parts separate entries of the source, which are not always exact repeats. Equal values may be shown once.

Common to all, as to format: biochemical
Experiment [1] addresses T1, human 15-PGDH (Homo sapiens, UniProt P15428).
T1 construct: comprising residues 3–256 of the human HPGD gene (GenBank identifier: 1203982); His6 (GHHHHHH, behind the TEV site) (C, cleaved yes); made in house; host or cells: E. coli BL21(DE3)-R3
T1 sequence (P15428 3-256): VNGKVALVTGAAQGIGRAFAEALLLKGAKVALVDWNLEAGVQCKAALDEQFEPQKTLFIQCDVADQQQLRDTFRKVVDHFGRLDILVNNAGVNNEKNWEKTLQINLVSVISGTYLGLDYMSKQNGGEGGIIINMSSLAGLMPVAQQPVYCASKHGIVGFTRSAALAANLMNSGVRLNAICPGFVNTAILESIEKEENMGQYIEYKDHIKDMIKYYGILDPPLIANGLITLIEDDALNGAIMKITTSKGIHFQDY
In words: Compound titrations of re-synthesized inhibitors in the kinetic assay. The procedure: Kinetic studies were performed in 100 mM Tris buffer pH 8.0, containing 0.01% Tween-20 and 10 nM 15-PGDH enzyme. […] All inhibitor compounds were dissolved in 10% (v/v) DMSO at varying concentrations from which they were applied at 1∶5 ratio (resulting in a final concentration of 2% (v/v) DMSO in all assays). For each experiment an aliquot of purified enzyme was thawed freshly and pre-diluted to 10 µM in buffer I (5 mM Tris/HCl, pH 8.0, 150 mM NaCl, 0.01% Tween-20). All experiments were performed in white 384-well PCR microplates (Bio-Rad Laboratories, Inc.) in final assay volumes of 20 µL. Twelve-point compound titrations were set up from serially diluted stock solutions in 10% (v/v) DMSO. […] The initial rates recorded in compound titrations were plotted against -log[compound], and non-linear regression (Levenberg-Marquardt) fitting of the dose-response curve to the Hill equation [47] was performed to derive the IC50, using PRISM 5.0 (GraphPad Software, Inc.). For substrate/cofactor titrations, curves with initial rates plotted against the concentration of substrate or cofactor were fitted to the Michaelis-Menten equation, to derive maximal activities, V max, and Michaelis constants, K m. Fitting qualities were judged from the goodness of fit (R^2>0.98).

The target in experiment [2] is T1, human 15-PGDH. In words: qHTS and 24-point re-test: fluorescence assay of NAD+ reduction to NADH on PGE2 oxidation (PubChem AID 894). On the procedure: To screen for inhibitors in a high-throughput format, we adopted the standard assay used for this enzyme which involved monitoring the increase in sample fluorescence corresponding to the conversion of the non-fluorescent NAD^+ cofactor into the fluorescent NADH upon oxidation of the 15-PGDH substrate 15-hydroxyprostaglandin type-E2 (PGE2) (Figure 1). The assay was miniaturized to a 4-µL volume in 1536-well format: enzyme (3 µL) was dispensed first, followed by a pintool transfer of library compounds dissolved in DMSO. After equilibration, a substrate dispense (1 µL) initiated the enzymatic reaction (see Materials and Methods, for detailed protocol description). A robotic validation run consisting of a concentration-response screen of the LOPAC^1280 library, performed in triplicate, yielded excellent assay statistics and hit reproducibility (supplementary information Figures S1A and S1B). […] Similarly, the collection of real-time kinetic data allowed the autofluorescence of each compound to be evaluated by comparing the initial fluorescence read at top concentration with the mean value of uninhibited assay controls: compounds whose top-concentration initial well fluorescence exceeded six standard deviations over the mean were flagged as potential autofluorescent artifacts, [28] […]

Experiment [3] deals with T1, human 15-PGDH. In words: Substrate (PGE2) and cofactor (NAD+) titrations, mechanism of action, global fitting. As to conditions: inhibitor 10.0 nM. The procedure: The Michaelis constant, K m, for PGE2 was calculated from the data as 5.5±0.6 µM, comparing favorably with previously published values, [35], [36]. […] Global fitting of the results to the four possible modes of inhibition (competitive, uncompetitive, noncompetitive and mixed-type inhibition) returned the highest probability for the mixed-type mode (Table 2). However, the fitting results are also consistent with a competitive mode for inhibition by compound 61, particularly when the residual Chi^2 value for this mode is compared to those of the other two compounds.
Kinetic studies were performed in 100 mM Tris buffer pH 8.0, containing 0.01% Tween-20 and 10 nM 15-PGDH enzyme. NAD^+ and PGE2 were applied from stock concentrations of 100 or 2 mM, respectively, in 500 mM Tris/HCl, pH 8.0. […] Experiments comprising substrate titrations, from serially diluted stock solutions in buffer I, were started by injection of buffer I containing enzyme and NAD^+, while cofactor titrations were set up in assay buffer containing 30 µM PGE2 substrate and started by injection of enzyme in buffer I. The reduction of NAD^+ was followed by monitoring fluorescence emission at 460 nm, excited at 355 nm (10 nm bandwidth filters, PolarStar Omega, BMG Labtech GmbH), at a reading frequency of 22 s/point or 12 s/point for compound- or substrate/cofactor titrations, respectively. […]

Broadly, the IC50 is the concentration needed to halve the response being measured. `N#Cc1ccccc1CSc1nc2cc(Br)c[nH]c-2n1` [Compound 61]: the IC50 in experiment [1] (10 nM 15-PGDH, 30 µM PGE2, 200 µM NAD+, 25°C, lower percent substrate conversion, read-out: IC50, re-synthesized compounds) is 0.0264 ± 0.0024 µM; in experiment [2], 0.141 µM. The Ki in experiment [1] (from observed IC50 assuming competitive inhibition with respect to PGE2, read-out: inhibition constant, K i) was ~0.005 µM and 0.005 µM. Further, in experiment [3], the “Titration of PGE2 k cat[1/sec]” value is 14.1 ± 0.2 s⁻¹.
